The assay has as its system Bovine cardiac myofibrils. Nature of the assay: In vitro model of dose-dependent myofibril ATPase modulation (AC1.4, pyruvate kinase/lactate dehydrogenase-coupled ATPase assay at pCa25). It is filed as biochemical. The note with it: concentration at which ATPase activity was 1.4-fold higher than the bottom of the dose curve, mean of a minimum of two independent tests. How it is done:
In vitro Model of Dose-Dependent Myofibril ATPase Modulation: Dose responses were measured using a calcium-buffered, pyruvate kinase and lactate dehydrogenase-coupled ATPase assay containing the following reagents (concentrations expressed are final assay concentrations): Potassium PIPES (12 mM), MgCl2 (2 mM), ATP (1 mM), DTT (1 mM), BSA (0.1 mg/mi), NADH (0.5 mM), PEP (1.5 mM), pyruvate kinase (4 U/ml), lactate dehydrogenase (8 U/ml), and antifoam (90 ppm). The pH was adjusted to 6.80 at 22° C. by addition of potassium hydroxide.
Bovine cardiac myofibrils were obtained by homogenizing the appropriate tissue in the presence of detergent. Such treatment removes membranes and majority of soluble cytoplasmic proteins but leaves intact cardiac sarcomeric acto-myosin apparatus. Concentrations of myofibrils were adjusted to achieve the necessary rate of ATP hydrolysis (typically 0.25-1.0 mg/ml).
Assays were performed by first preparing a dilution series of test chemical entity, each with an assay mixture containing potassium Pipes, MgCl2, BSA, DTT, pyruvate kinase, lactate dehydrogenase, myofibrils, antifoam, EGTA, CaCl2, and water. The assay was started by adding an equal volume of solution containing potassium Pipes, MgCl2, BSA, DTT, ATP, NADH, PEP, antifoam, and water. ATP hydrolysis was monitored by absorbance at 340 nm. […]

Molecules are shown by their SMILES.

This note sets out measurements from patent US11780826B2 (Amgen Inc., priority 2017, dated 2023).

`Cc1ccc(C(=O)N2[C@@H](C(=O)N[C@@H](c3cc(F)c(C(F)(F)F)cc3F)C3COC3)C[C@H]3C[C@H]32)s1` [Example 816, (1R,3R,5R)-N-((R)-(2,5-difluoro-4-(trifluoromethyl)phenyl)(oxetan-3-yl)methyl)-2-(5-methylthiophene-2-carbonyl)-2-azabicyclo[3.1.0]hexane-3-carboxamide] registered an AC1.4 of 2.775 µM.
